Results on 1 molecule are retold here after US10287337B2 (priority 2015, dated 2019).

Sequences of proteins named here, by UniProt entry; tags and fusion partners are left off. Residues count along the entry.
UniProt O60894, 27-148: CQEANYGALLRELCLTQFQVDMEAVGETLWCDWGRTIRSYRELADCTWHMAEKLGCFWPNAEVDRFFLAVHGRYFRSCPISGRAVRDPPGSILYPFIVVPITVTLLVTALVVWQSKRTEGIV
UniProt Q16602, 23-461: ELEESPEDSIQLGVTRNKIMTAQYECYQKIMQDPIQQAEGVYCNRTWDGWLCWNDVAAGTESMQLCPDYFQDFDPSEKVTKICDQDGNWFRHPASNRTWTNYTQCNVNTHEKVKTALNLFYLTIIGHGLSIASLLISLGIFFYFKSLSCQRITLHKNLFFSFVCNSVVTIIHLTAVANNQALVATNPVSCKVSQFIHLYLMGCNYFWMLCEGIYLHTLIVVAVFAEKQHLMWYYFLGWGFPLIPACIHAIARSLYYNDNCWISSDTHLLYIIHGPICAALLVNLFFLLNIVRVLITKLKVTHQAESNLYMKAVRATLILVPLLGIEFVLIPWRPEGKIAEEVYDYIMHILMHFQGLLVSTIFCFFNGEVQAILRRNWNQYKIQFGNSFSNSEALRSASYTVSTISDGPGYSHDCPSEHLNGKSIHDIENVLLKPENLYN

Experiment [1] has as its target T1, human calcitonin CGRP1 (CGRP1) membrane (Homo sapiens, UniProt O60894+Q16602).
T1 construct: purchased Perkin Elmer (Waltham, Mass.)
Type of experiment: binding. As for the experimental part:
CGRP1 membrane was homogenized in the assay buffer (50 mM Tris-HCl pH 7.4, 5 mM MgCl2, 0.5% BSA, 0.05% Tween20). […] After 1 h of incubation, at room temperature, samples were filtered, using a Tomtec cell harvester, through glass fiber filters that had been presoaked in 0.05% polyethyleneimine and washed with the cold Tris buffer (50 mM Tris-HCl pH7.4). Filters were counted on a betaplate reader (Wallac).

The test system of experiment [2] is STZ-induced diabetic pain in rats. Briefly: Streptozotocin (STZ)-induced diabetic neuropathic pain model. As to conditions: rat, in vivo. As for the experimental part:
Painful peripheral neuropathy is a common secondary complication of diabetes mellitus. Streptozotocin (STZ)-induced diabetic polyneuropathy causes more broad pain and has neurogenic inflammation component in rodents (Bishnoi et al., 2011). Prior to STZ administration, each rat's baseline of thermal and mechanical thresholds on their individual hindpaws were assessed using the Hargreaves thermal pain test, and von Frey mechanical pain test, respectively.
After removing the patches, hindpaw withdrawal latencies induced by continuous and noxious heat (Hargreaves) were assessed at 1 hour post-microneedle application.

As to `CSCC[C@H](NC(=O)CNC(=O)CNC(=O)[C@H](CO)NC(=O)[C@H](CCCNC(=N)N)NC(=O)[C@H](CO)NC(=O)[C@H](CC(C)C)NC(=O)[C@H](CC(C)C)NC(=O)CNC(=O)[C@H](C)NC(=O)[C@H](CC(C)C)NC(=O)[C@H](CCCNC(=N)N)NC(=O)[C@H](Cc1c[nH]cn1)NC(=O)[C@@H](NC(=O)[C@@H](N)C(C)C)[C@@H](C)O)C(=O)N[C@H](C(=O)N[C@@H](CCCCN)C(=O)N[C@@H](CO)C(=O)N[C@@H](CC(N)=O)C(=O)N[C@@H](Cc1ccccc1)C(=O)N[C@H](C(=O)N1CCC[C@H]1C(=O)N[C@H](C(=O)N[C@@H](CC(N)=O)C(=O)N[C@H](C(=O)NCC(=O)N[C@@H](CO)C(=O)N[C@@H](CCCCN)C(=O)N[C@@H](C)C(=O)N[C@@H](Cc1ccccc1)C(N)=O)C(C)C)[C@@H](C)O)C(C)C)C(C)C` [CGRP 8-37], in experiment [1], the Hill slope is 1.21 ± 0.20. For the same molecule, the “mechanical stimulation withstood relative to prior to STZ injection” value in experiment [2] amounted to 55%.

A word on the Hill slope: it is a measure of the steepness of the concentration-response curve.
